# Results: patent publication US6855872B2 (priority 1997, dated 2005)
# Assays:
# Details in all cases: Nicotiana tabacum
# [1] = in vitro
# [2] = in vitro; remark: listed apart in the source
# [3] = in vitro; remark: listed apart in the source
smiles,measurement,setting,value
"CC1=C[C@H]2O[C@@H]3[C@H](O)C[C@](C)([C@@]2(CO)[C@H](O)C1=O)[C@]31CO1 [DON, deoxynivalenol]",viability,[1],18%
same,viability,[2],56%
same,viability,[3],< 10%
